# Reference: PubChem BioAssay AID686970 (National Center for Advancing Translational Sciences (NCATS), 2013)
# Only a part is listed here, and it is no random draw. Results filed as inconclusive are left out. The source made the active and inactive calls. Calls follow the shape of the dose curve; as a rule, active = well fitted cell-killing curve with a large enough effect; inconclusive = small, poorly fitted or top-dose-only effect, or effect the other way; inactive = flat fitted curve, though single readings scatter.
# Experiment: qHTS for induction of synthetic lethality in tumor cells producing 2HG: qHTS for the HT-1080-NT fibrosarcoma cell line;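 also: NT is the 2HG producing partner of a matched IDH1 knockdown line; nearly all actives have a fitted effect of over 55% in size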;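 as to activity, negative = less viability: 0% = DMSO-treated cells and -100% = media-only wells without cells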
# Conditions: HT-1080-NT fibrosarcoma viability, CellTiter-Glo ATP luminescence, 48 h; series mostly up to 46.1 µM; activity, negative = less viability: at the top concentration
# Potency is read from the fitted curve at half-maximal effect.
SMILES,"activity, negative = less viability",Potency
CC1CCNP(=O)(N(CCCl)CCCl)O1 (configuration not stated),inactive: -0.563%,–
O=C(O)C(O)c1ccc(N(CCCl)CCCl)cc1 (configuration not stated),inactive: -7%,–
O=P1(Nc2ccc(Br)cn2)COc2ccccc2OC1,inactive: 3.62%,–
NS(=O)(=O)c1cccc(NC(=O)COC(=O)C(O)(c2ccccc2)c2ccccc2)c1,inactive: -3.55%,–
Cc1ccc(OCC(=O)OC2CN3CCC2CC3)cc1 (configuration not stated),inactive: 11.9%,–
O=[As](O)(c1cccs1)c1cccs1,inactive: -0.333%,–
Nc1cccc([As](=O)(O)c2ccccc2)c1,inactive: 0%,–
O=P1(Nc2ncccn2)COc2ccccc2OC1,inactive: 17%,–
Cc1ccc(S(=O)(=O)N(CCCN)CCCc2c(C)nc(N)[nH]c2=O)cc1,inactive: -14.1%,–
O=C(/C=C/c1ccccc1)OC1CN2CCC1CC2 (configuration not stated),inactive: 1.54%,–
CCCC1OP(=O)(Nc2ccccc2)OCC1CC (configuration not stated),inactive: 1.28%,–
Cc1nn(-c2ccccc2)c2c1P(=O)(N1CCOCC1)N(C)C(c1ccccc1)=N2 (configuration not stated),inactive: 18.8%,–
CC1CCC(C(C)C)C(OP(=O)(Nc2ccccn2)c2ccccc2)C1 (configuration not stated),–,active: 23.1 µM
Cc1ccc(C(=O)OC2CN3CCC2CC3)cc1 (configuration not stated),inactive: -16.9%,–
CC1(CBr)Cn2c(nc3ccccc3c2=O)S1 (configuration not stated),inactive: 2.24%,–
CC(C)/C=N\N=C(\N)N[N+](=O)[O-],inactive: -2.67%,–
CN(C(=O)Cc1ccc(Cl)c(Cl)c1)[C@@H]1CCCC[C@H]1N1CCCC1,inactive: -15.1%,–
COc1ccccc1CNC(=O)COC(=O)C(O)(c1ccccc1)c1ccccc1,inactive: 1.61%,–
O=P1(N(CCCl)CCCl)NCCC(C(F)(F)F)O1 (configuration not stated),inactive: -1.32%,–
Clc1n[nH]nc1-c1nn[nH][15n]1,inactive: -3.26%,–
CC(C)(C)C(=O)NC(Sc1ncccn1)C(Cl)(Cl)Cl (configuration not stated),inactive: 0%,–

SMILES,"activity, negative = less viability",Potency
CN(CCCl)Cc1cc(Cl)c(NC2=NCCN2)c(Cl)c1,inactive: -10.4%,–
CCOP(=O)(Nc1ccc(C)cn1)OCC,inactive: 1.33%,–
O=P1(Nc2ccccn2)COc2ccccc2OC1,inactive: 8.85%,–
CCOP(=O)(NC(=NC(C)c1ccccc1)NC(C)c1ccccc1)OCC (configuration not stated),inactive: 6.9%,–
COc1cc(C2NCCC3(OCCO3)C2(C)C)cc(OC)c1OC (configuration not stated),inactive: -0.176%,–
CCOP(=O)(Nc1cccc2ccccc12)OCC,inactive: 6.01%,–
CCCOP(=S)(Nc1nc(N)cc(=O)[nH]1)OCCC,inactive: 9.19%,–
Cc1ccc(NCCc2c([N+](=O)[O-])cc([N+](=O)[O-])cc2[N+](=O)[O-])cc1,inactive: 3.06%,–
Nc1cccc2c([As](=O)(O)O)cccc12,inactive: 3.02%,–
O=[As](O)(c1cccc(O)c1)c1cccc(O)c1,inactive: 8.34%,–
Cc1cccc(OCC(=O)OC2CN3CCC2CC3)c1 (configuration not stated),inactive: 16.3%,–
O=[As](O)(O)c1cccnc1,inactive: 4.35%,–
CS(=O)(=O)c1ccc(Cl)c(NC(=O)COC(=O)C(O)(c2ccccc2)c2ccccc2)c1,inactive: 3.21%,–
O=C(OC1CN2CCC1CC2)c1ccc(Cl)cc1 (configuration not stated),inactive: 5.77%,–
CN(C)C(=O)c1cc([N+](=O)[O-])cc2c1-c1c(cc([N+](=O)[O-])cc1[N+](=O)[O-])C2=O,–,active: 10.3 µM
O=[N+]([O-])c1ccc2c(c1)nnn2O,inactive: -4.96%,–
CN(C(=O)Cc1ccc(Cl)c(Cl)c1)[C@H]1CC[C@@]2(CCCO2)C[C@@H]1N1CCCC1,inactive: -1.68%,–
N#CCCN(C(=O)COC(=O)C(O)(c1ccccc1)c1ccccc1)c1ccc(F)cc1,inactive: -6.64%,–
CN(C(=O)Cc1ccccc1)[C@@H]1CC[C@]2(CCCO2)C[C@H]1N1CCCC1,inactive: 2.91%,–
CCOP1(=S)c2c(C)nn(CCC#N)c2N=C(c2ccc(F)cc2)N1C (configuration not stated),inactive: -17.1%,–
NC(=O)Nc1ccc([As](=O)(O)O)cc1,inactive: 4.13%,–

SMILES,"activity, negative = less viability",Potency
Nc1ccccc1[As](=O)(O)c1ccccc1,inactive: 10.9%,–
O=C(O)COc1ccc([As](=O)(O)O)cc1[N+](=O)[O-],inactive: 12.5%,–
CS(=O)(=O)c1cc([N+](=O)[O-])c2no[n+]([O-])c2c1,inactive: 5.62%,–
CCOP1(=S)c2c(C)nn(CCC#N)c2N=C(c2ccccc2F)N1C (configuration not stated),inactive: -7.06%,–
O=P(Nc1nccs1)(c1ccccc1)c1nc2ccccc2s1 (configuration not stated),inactive: -1.06%,–
O=P(Nc1nccs1)(Oc1ccccc1)Oc1ccccc1,inactive: 6.32%,–
Cc1ccccc1OP(=O)(Nc1ccccn1)Oc1ccccc1C,inactive: -16.8%,–
CC(NC(=O)COC(=O)C(O)(c1ccccc1)c1ccccc1)c1ccccc1 (configuration not stated),inactive: 1.86%,–
CN(C)C(=O)Oc1noc2ccccc12,inactive: 4.87%,–
O=c1c2cc([N+](=O)[O-])ccc2[nH]c2c([N+](=O)[O-])cc([N+](=O)[O-])cc12,–,active: 3.26 µM
COC(=O)c1cc2c(s1)N=C(c1ccccc1)N(C)P2(=O)N1CCOCC1 (configuration not stated),inactive: 15%,–
CC(=O)NC(SC(=S)N(CC(C)C)CC(C)C)C(Cl)(Cl)Cl (configuration not stated),inactive: 3.4%,–
Cc1ccc(OP(=O)(Nc2ccccn2)Oc2ccc(C)cc2)cc1,inactive: -8.44%,–
O=C(OC1CN2CCC1CC2)c1ccccc1 (configuration not stated),inactive: 15.4%,–
CCC(=O)N1C2C3N(C(=O)CC)C1C1N(C(=O)CC)C(C(N1C(=O)CC)N3C(=O)CC)N2C(=O)CC,inactive: 15.4%,–
O=P1(N(CCCl)CCCl)OCCC2CCCCN21 (configuration not stated),inactive: 10.8%,–
CCNC(=S)/N=C(\N)N[N+](=O)[O-],inactive: -4.39%,–
O=C(NC1CCS(=O)(=O)C1)NP(=S)(Oc1ccccc1)Oc1ccccc1 (configuration not stated),inactive: 7.43%,–
c1ccc(-c2nn[nH]n2)c(-c2nn[nH]n2)c1,inactive: 17.2%,–
Cc1ccc(NP(=O)(Oc2cccc(C)c2)Oc2cccc(C)c2)nc1,inactive: 13.3%,–
